Our source for the koff values is article PMC9509318 (2022).

For this experiment, the target named is T1, Pfs48/45 full-length ectodomain (Plasmodium falciparum, UniProt Q8I6T1 27-427).
T1 chain: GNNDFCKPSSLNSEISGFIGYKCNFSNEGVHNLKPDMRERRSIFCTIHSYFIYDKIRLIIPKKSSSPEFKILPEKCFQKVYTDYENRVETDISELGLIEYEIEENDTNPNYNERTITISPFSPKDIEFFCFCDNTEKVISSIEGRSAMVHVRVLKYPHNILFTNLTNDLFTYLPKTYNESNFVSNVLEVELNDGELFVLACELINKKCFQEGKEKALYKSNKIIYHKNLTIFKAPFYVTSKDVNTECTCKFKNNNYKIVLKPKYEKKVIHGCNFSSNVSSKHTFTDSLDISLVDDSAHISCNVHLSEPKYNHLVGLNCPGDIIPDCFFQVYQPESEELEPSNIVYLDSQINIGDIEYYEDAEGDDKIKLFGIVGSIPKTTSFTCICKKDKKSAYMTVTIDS
The experiment can be described thus: SPR. On the technique in general: SPR reads the build-up and loss of mass on a sensor chip optically.

B1: 85RF45.1 monoclonal antibody (antibody, V domains shown)
VH: EVQLVESGGGLLQPGRSLKLSCVASGFTFNNYWMSWIRQAPGKGLEWIASISNIGGTIYYPDSVKGRFTISRDSAQNTLYLQMNSLRSEDTATYYCTRDLRMSDYFDYWGQGVMVTVSS
VL: QFVLSQPNSVSTNLGSTVKLSCKRSTGNIGSNYVSWYQHHEGRSPTTMIYRDDQRPDGVPDRFSGSIDRSSNSALLTIDNVQTEDEAAYFCHSYSTGMYIFGGGTKLTVL
As for B1, the koff – broadly, the first-order rate constant of dissociation – was determined as 0.00186 s⁻¹.
